Source: PubChem BioAssay (NCI)
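Grown in 96-well plates, cells were treated for 48 hours with each compound at five concentrations. Insufficient inhibition: endpoint recorded as highest concentration tested. GI50: concentration for 50% inhibition of growth. At the TGI there is no net growth.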

Experiments:
Test in all cases: inhibition of tumour cell growth, NCI panel, 48 h
LOX IMVI melanoma = system: LOX IMVI melanoma
SN12C renal = system: SN12C renal
HT29 colon = system: HT29 colon
SW-620 colon = system: SW-620 colon
HCC-2998 colon = system: HCC-2998 colon
UACC-257 melanoma = system: UACC-257 melanoma
MALME-3M melanoma = system: MALME-3M melanoma
OVCAR-3 ovarian = system: OVCAR-3 ovarian
HCT-116 colon = system: HCT-116 colon
RXF 393 renal = system: RXF 393 renal
MDA-N = system: MDA-N
786-0 renal = system: 786-0 renal
KM12 colon = system: KM12 colon
SNB-75 CNS = system: SNB-75 CNS
HS 578T breast = system: HS 578T breast
M14 melanoma = system: M14 melanoma
TK-10 renal = system: TK-10 renal
HCT-15 colon = system: HCT-15 colon
HOP-62 NSCLC = system: HOP-62 NSCLC
SF-295 CNS = system: SF-295 CNS
OVCAR-5 ovarian = system: OVCAR-5 ovarian
SNB-19 CNS = system: SNB-19 CNS
SF-268 CNS = system: SF-268 CNS
HOP-92 NSCLC = system: HOP-92 NSCLC
A549 NSCLC = system: A549 NSCLC
IGROV1 ovarian = system: IGROV1 ovarian
OVCAR-8 ovarian = system: OVCAR-8 ovarian
NCI-H23 lung = system: NCI-H23 lung
RPMI-8226 leukemia = system: RPMI-8226 leukemia
PC-3 prostate = system: PC-3 prostate

NC(=O)Nc1cc([As](=O)(O)O)cc(I)c1O
TGI (LOX IMVI melanoma): > 100 µM
GI50 (SN12C renal): > 100 µM
TGI (SN12C renal): > 100 µM
GI50 (HT29 colon): > 100 µM
TGI (HT29 colon): > 100 µM
GI50 (SW-620 colon): > 100 µM
TGI (SW-620 colon): > 100 µM
GI50 (HCC-2998 colon): > 100 µM
TGI (HCC-2998 colon): > 100 µM
GI50 (UACC-257 melanoma): > 100 µM
TGI (UACC-257 melanoma): > 100 µM
GI50 (MALME-3M melanoma): > 100 µM
TGI (MALME-3M melanoma): > 100 µM
GI50 (OVCAR-3 ovarian): > 100 µM
TGI (OVCAR-3 ovarian): > 100 µM
GI50 (HCT-116 colon): > 100 µM
TGI (HCT-116 colon): > 100 µM
GI50 (RXF 393 renal): > 100 µM
TGI (RXF 393 renal): > 100 µM
GI50 (MDA-N): > 100 µM
TGI (MDA-N): > 100 µM
GI50 (786-0 renal): > 100 µM
TGI (786-0 renal): > 100 µM
GI50 (KM12 colon): > 100 µM
TGI (KM12 colon): > 100 µM
GI50 (SNB-75 CNS): > 100 µM
TGI (SNB-75 CNS): > 100 µM
GI50 (HS 578T breast): > 100 µM
TGI (HS 578T breast): > 100 µM
GI50 (M14 melanoma): > 100 µM
TGI (M14 melanoma): > 100 µM
GI50 (TK-10 renal): > 100 µM
TGI (TK-10 renal): > 100 µM
GI50 (HCT-15 colon): > 100 µM
TGI (HCT-15 colon): > 100 µM
GI50 (HOP-62 NSCLC): > 100 µM
TGI (HOP-62 NSCLC): > 100 µM
GI50 (SF-295 CNS): > 100 µM
TGI (SF-295 CNS): > 100 µM
GI50 (OVCAR-5 ovarian): > 100 µM
TGI (OVCAR-5 ovarian): > 100 µM
GI50 (SNB-19 CNS): > 100 µM
TGI (SNB-19 CNS): > 100 µM
GI50 (SF-268 CNS): > 100 µM
TGI (SF-268 CNS): > 100 µM
GI50 (HOP-92 NSCLC): > 100 µM
TGI (HOP-92 NSCLC): > 100 µM
GI50 (A549 NSCLC): > 100 µM
TGI (A549 NSCLC): > 100 µM
GI50 (IGROV1 ovarian): > 100 µM
TGI (IGROV1 ovarian): > 100 µM
GI50 (OVCAR-8 ovarian): > 100 µM
TGI (OVCAR-8 ovarian): > 100 µM
GI50 (NCI-H23 lung): > 100 µM
TGI (NCI-H23 lung): > 100 µM
GI50 (RPMI-8226 leukemia): > 100 µM
TGI (RPMI-8226 leukemia): > 100 µM
GI50 (PC-3 prostate): > 100 µM
TGI (PC-3 prostate): > 100 µM
